Legend:
[1] = target: HER2 wild type Ba/F3 cell line (Homo sapiens, UniProt P04626); experiment: Ba/F3 cell proliferation MTS assay, HER2 wild type; assay type: cell-based, Murine; conditions: HER2 wild type Ba/F3 cells, 72 hours
[2] = target: HER2 InsYVMA Ba/F3 cell line (Homo sapiens, UniProt P04626, DUP772-775, cells depend on it); experiment: Ba/F3 cell proliferation MTS assay, HER2 InsYVMA; assay type: cell-based, Murine; conditions: 72 hours;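 also: murine Ba/F3 cells engineered to carry mutant HER2, viability read colorimetrically by MTS after 72 h of exposure, EC50 from sigmoidal non-linear regression of dose response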

Amino acid sequences for entries named in this document (tags omitted). Chains listed by the source or under a name are the forms on record and can include a tag or linker.
UniProt P04626, whole entry, stated change not applied: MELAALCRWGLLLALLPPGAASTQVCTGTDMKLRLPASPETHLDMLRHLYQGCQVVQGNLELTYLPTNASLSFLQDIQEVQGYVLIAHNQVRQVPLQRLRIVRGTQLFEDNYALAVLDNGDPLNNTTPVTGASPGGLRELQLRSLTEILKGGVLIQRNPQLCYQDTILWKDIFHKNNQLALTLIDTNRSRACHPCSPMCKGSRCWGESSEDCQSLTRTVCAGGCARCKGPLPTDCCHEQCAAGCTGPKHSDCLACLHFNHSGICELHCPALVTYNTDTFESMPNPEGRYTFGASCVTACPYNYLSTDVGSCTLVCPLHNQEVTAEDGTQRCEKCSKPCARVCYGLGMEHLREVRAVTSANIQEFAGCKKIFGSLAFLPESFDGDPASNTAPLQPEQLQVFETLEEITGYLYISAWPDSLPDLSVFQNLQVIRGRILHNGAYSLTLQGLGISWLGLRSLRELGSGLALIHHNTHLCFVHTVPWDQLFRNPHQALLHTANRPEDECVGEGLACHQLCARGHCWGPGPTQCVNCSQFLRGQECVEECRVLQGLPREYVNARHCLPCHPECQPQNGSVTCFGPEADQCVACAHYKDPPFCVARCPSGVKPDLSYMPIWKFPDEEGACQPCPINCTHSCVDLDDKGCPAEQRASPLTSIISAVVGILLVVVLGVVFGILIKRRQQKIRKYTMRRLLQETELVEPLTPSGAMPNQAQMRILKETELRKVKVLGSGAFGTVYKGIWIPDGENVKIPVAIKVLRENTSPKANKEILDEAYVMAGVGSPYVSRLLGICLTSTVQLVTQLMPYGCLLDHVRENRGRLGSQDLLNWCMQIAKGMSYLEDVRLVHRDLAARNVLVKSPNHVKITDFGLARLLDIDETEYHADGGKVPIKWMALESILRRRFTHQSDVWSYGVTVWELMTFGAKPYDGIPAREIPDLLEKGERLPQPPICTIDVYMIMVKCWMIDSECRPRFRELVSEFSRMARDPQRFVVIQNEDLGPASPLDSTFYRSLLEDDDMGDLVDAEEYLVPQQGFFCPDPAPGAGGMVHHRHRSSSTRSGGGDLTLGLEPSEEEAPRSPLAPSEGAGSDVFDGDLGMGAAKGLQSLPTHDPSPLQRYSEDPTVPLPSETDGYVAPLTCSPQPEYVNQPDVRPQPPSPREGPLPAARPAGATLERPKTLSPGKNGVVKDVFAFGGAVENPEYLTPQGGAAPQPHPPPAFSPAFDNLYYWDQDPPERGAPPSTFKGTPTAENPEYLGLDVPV
UniProt P04626, with tags, fused parts or gaps DUP772-775: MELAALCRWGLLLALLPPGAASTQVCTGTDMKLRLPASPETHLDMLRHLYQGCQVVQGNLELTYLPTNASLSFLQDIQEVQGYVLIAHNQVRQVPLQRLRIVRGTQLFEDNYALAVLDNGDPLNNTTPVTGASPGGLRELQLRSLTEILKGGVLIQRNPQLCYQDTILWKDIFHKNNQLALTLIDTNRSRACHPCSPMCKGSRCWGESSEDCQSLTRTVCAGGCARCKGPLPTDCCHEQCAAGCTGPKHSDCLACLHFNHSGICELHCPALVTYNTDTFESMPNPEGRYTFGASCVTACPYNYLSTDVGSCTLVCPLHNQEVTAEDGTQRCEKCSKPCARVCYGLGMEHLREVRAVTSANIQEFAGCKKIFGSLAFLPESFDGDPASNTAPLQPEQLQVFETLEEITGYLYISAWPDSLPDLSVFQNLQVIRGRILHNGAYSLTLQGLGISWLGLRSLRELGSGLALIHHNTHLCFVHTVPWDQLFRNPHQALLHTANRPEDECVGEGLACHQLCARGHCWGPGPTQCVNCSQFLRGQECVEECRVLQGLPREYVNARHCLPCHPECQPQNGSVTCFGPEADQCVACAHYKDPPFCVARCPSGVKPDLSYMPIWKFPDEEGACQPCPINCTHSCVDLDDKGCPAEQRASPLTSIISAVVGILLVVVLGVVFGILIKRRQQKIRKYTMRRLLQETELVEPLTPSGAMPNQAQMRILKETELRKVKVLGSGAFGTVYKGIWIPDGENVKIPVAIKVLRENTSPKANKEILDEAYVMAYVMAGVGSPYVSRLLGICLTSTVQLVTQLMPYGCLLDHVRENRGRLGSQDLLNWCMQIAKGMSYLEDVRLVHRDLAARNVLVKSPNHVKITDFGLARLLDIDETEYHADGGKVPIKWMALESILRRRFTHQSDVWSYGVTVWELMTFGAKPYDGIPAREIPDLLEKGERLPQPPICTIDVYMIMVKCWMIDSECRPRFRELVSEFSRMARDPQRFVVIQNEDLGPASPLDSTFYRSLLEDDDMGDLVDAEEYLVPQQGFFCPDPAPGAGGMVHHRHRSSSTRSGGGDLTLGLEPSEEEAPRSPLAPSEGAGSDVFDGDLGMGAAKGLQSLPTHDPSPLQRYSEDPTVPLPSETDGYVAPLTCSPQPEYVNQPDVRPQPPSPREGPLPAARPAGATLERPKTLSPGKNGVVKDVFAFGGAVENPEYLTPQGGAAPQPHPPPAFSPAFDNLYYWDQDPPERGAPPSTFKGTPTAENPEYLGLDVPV

**Q.** Which EC50 [1] does the source give for `COc1cc2ncnc(Nc3ccc(F)c(Cl)c3)c2cc1NC(=O)/C=C/CN1CCCCC1` [Dacomitinib, reference compound] here?
**A.** < 100 nM

**Q.** And the EC50 [2]?
**A.** < 100 nM

From patent US10550112B2, “Pyrimidines as EGFR inhibitors and methods of treating disorders” (Dana-Farber Cancer Institute, Inc., priority 2015, dated 2020)
